The values below come from ChEMBL document CHEMBL1926631, “N⁴-Aryl-6-substitutedphenylmethyl-7H-pyrrolo[2,3-d]pyrimidine-2,4-diamines as receptor tyrosine kinase inhibitors” (Bioorg Med Chem, 2012).

Sequences of proteins named here, by UniProt entry; tags and fusion partners are left off.
UniProt P17948, whole entry: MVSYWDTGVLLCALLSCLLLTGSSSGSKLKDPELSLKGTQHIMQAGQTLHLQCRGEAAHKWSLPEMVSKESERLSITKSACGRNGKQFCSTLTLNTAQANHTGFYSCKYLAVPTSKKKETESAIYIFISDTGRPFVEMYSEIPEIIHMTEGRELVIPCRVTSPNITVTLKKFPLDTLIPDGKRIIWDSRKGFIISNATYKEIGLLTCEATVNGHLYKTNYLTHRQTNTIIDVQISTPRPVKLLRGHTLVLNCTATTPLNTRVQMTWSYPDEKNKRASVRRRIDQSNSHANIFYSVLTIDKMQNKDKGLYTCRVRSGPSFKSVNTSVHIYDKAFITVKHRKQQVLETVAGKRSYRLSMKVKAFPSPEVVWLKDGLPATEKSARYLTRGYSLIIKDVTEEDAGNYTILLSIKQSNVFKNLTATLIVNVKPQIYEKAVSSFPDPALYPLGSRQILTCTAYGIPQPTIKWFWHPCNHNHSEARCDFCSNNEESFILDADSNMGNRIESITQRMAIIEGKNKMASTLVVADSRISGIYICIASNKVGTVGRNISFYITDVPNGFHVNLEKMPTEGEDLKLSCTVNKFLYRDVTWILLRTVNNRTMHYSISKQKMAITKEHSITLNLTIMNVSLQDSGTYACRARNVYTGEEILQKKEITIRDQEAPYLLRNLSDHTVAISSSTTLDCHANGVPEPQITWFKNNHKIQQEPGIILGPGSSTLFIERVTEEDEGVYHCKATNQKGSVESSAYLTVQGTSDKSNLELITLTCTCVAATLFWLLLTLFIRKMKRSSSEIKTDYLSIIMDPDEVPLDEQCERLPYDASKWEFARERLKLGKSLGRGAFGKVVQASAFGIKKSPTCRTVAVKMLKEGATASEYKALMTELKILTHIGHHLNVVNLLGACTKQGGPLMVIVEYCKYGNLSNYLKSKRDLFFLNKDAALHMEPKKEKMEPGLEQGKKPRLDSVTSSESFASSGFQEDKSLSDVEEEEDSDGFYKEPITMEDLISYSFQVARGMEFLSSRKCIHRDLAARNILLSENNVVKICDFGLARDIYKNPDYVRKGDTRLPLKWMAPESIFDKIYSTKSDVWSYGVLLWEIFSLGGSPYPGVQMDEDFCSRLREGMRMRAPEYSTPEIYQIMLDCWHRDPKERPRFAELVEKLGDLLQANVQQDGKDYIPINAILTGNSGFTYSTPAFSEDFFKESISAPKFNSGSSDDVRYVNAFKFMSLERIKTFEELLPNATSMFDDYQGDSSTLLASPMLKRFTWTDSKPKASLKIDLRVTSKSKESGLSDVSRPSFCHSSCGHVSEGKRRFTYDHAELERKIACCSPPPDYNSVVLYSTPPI

The target in the experiment is Vascular endothelial growth factor receptor 1 (Homo sapiens, UniProt P17948). The experiment in a line: Inhibition of VEGFR1 tyrosine kinase activity in VEGF-stimulated human A498 cells after 60 mins by ELISA. The format is cell-based. The gist of the method: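 Then stimulated 10 min with 100 ng/mL growth factor: PDGF-BB for SF-539 (PDGFR-β), VEGF for A498 (VEGFR-1). Lysed in ice-cold TBS/0.05% triton with protease and phosphatase inhibitors, heat/ethanol-fixed. Total phosphotyrosine read by HRP anti-phosphotyrosine with luminol chemiluminescence.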
A general note: An ELISA detects its analyte on a solid surface through an enzyme-linked reagent.

SMILES strings stand for the structures.

Take `Nc1nc(Nc2cccc(Br)c2)c2cc(Cc3cccc4ccccc34)[nH]c2n1`: half-maximal inhibition (IC50) was put at 16 µM.

A word on the IC50: it is the concentration at which inhibition is half-maximal. Lower therefore signals greater potency.
